Assay results from PMC6857076 (Pharmacology Research & Perspectives, 2019).
Read-outs that look alike come from different tables or passages of the source.

By UniProt entry, the sequences of proteins in these tests, tags left out. Residues count along the entry.
UniProt O60674, 849-1124 limits assumed: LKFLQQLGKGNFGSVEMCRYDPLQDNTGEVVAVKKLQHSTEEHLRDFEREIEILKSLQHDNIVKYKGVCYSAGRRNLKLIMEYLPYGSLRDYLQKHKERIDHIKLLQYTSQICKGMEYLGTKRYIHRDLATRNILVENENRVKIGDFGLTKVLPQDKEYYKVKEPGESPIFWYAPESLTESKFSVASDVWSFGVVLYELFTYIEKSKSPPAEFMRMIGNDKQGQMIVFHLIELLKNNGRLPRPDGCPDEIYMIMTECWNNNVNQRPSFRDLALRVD

Key:
[1] = RA, randomized controlled trials, cited from earlier work
[2] = target: recombinant human kinase domain of JAK2 (Homo sapiens, UniProt O60674); assay: Enzymatic microfluidic kinase assay, JAK2
[3] = target: T1, recombinant human kinase domain of TYK2 (Homo sapiens, UniProt P29597); assay: Enzymatic microfluidic kinase assay, TYK2
T1 sequence (P29597 897-1176 limits assumed): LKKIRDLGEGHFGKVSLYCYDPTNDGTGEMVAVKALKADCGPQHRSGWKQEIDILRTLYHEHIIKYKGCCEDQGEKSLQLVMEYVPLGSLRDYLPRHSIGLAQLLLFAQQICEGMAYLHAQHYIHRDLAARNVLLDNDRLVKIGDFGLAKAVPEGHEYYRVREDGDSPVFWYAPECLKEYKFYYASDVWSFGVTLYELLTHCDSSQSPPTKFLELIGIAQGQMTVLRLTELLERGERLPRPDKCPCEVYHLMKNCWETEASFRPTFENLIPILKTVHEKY

| SMILES | serious infections incidence rate (95% CI) ([1]; baricitinib 2 mg QD) | serious infections incidence rate (95% CI) ([1]; baricitinib 4 mg QD) | IC50 [2] [nM] | IC50 [3] [nM] |
| --- | --- | --- | --- | --- |
| CCS(=O)(=O)N1CC(CC#N)(n2cc(-c3ncnc4[nH]ccc34)cn2)C1 [Baricitinib] | 4.8 (2.3, 9.7) patients with events per 100 p | 3.7 (2.3, 5.8) patients with events per 100 p | 2 |  |
| O=C(Nc1nc2cccc(-c3ccc(CN4CCS(=O)(=O)CC4)cc3)n2n1)C1CC1 [Filgotinib] |  |  |  | 397 |
